Laboratory results from publication PMC7047604 (Journal of medicinal chemistry, 2020).

Tests used:
[1] = test system: male C57BL/6 mice; conditions: mouse, in vivo
[2] = in vitro; conditions: mouse, microsomes, pH 7.4, metabolic half-life in MLM, abstract statement

Row | SMILES | antinociception in AASA at 10 mg/kg [1] | half-life at 1 μM [2]
1 | CCOc1ccc(CN2CCc3ccccc3C2)cc1CNC(=O)[C@@H](N)Cc1c(C)cc(O)cc1C.O=C(O)C(F)(F)F [Compound 18, (S)-1-((5-((3,4-dihydroisoquinolin-2(1H)-yl)methyl)-2-ethoxybenzyl)amino)-3-(4-hydroxy-2,6-dimethylphenyl)-1-oxopropan-2-aminium trifluoroacetate] | showed antinociception | –
2 | CCOc1ccc(CN2Cc3ccccc3C2)cc1CNC(=O)[C@@H](N)Cc1c(C)cc(O)cc1C.O=C(O)C(F)(F)F [Compound 17, (S)-1-((2-ethoxy-5-(isoindolin-2-ylmethyl)benzyl)amino)-3-(4-hydroxy-2,6-dimethylphenyl)-1-oxopropan-2-aminium trifluoroacetate] | – | > 1 h
3 | CCOc1ccc(CNCc2ccccc2)cc1CNC(=O)[C@@H](N)Cc1c(C)cc(O)cc1C.O=C(O)C(F)(F)F [Compound 19, (S)-1-((5-((benzylamino)methyl)-2-ethoxybenzyl)amino)-3-(4-hydroxy-2,6-dimethylphenyl)-1-oxopropan-2-aminium trifluoroacetate] | showed antinociception | –
